This passage reports Cmax of mexiletine results from US20120196933A1, “MEXILETINE PRODRUGS” (priority 2010, published 2012).

This data set can be described thus: Systemic availability of mexiletine in the dog from mexiletine prodrugs (oral gavage). The data set is classed as in vivo. The settings on record: 1 mg/kg mexiletine free base, plasma mexiletine. As for the experimental part: Test substances (i.e., mexiletine, and various mexiletine amino acid prodrugs) were administered by oral gavage to groups of two or some cases five dogs. The characteristics of the test animals are set out in Table 6.
Blood samples were taken at various times after administration and submitted to analysis for parent drug using a validated LC-MS-MS assay. Pharmacokinetic parameters derived from the plasma bioanalytical data were determined using Win Nonlin.

For the substance Mexiletine acetyl-ornithine amide, the Cmax of mexiletine entry is “BLQ”.
